Measurements reported in article PMC11452492 (Nature Communications, 2024).

Chains of the proteins cited; added tags and fusions are not shown. Residues count along the entry.
UniProt P45983, 1-384 isoform P45983-3: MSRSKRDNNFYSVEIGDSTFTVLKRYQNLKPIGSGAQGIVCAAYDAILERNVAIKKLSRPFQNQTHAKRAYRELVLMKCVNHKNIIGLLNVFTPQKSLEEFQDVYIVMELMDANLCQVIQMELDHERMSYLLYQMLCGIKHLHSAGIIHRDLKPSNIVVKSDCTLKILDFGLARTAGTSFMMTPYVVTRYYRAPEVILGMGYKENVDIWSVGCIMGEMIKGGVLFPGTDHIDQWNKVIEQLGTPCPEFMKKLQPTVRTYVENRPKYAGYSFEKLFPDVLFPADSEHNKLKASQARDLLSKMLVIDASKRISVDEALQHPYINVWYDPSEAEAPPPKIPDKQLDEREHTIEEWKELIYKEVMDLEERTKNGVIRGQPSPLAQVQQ
UniProt P45983, 1-384 isoform P45983-3 C116S: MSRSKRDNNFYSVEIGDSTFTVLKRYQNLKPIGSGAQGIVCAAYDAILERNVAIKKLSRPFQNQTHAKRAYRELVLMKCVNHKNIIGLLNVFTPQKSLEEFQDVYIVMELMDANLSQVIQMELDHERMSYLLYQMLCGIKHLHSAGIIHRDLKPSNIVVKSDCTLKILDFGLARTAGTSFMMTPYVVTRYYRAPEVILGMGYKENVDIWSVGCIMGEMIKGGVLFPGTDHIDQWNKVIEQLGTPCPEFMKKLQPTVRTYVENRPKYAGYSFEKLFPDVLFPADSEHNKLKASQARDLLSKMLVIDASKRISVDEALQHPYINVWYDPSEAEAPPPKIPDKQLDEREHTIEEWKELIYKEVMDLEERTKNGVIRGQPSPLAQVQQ

Assays:
JNK1 = JNK1 (Homo sapiens, UniProt P45983); assay: in vitro JNK1 PhALC kinase assay; assay type: biochemical
JNK1 C116S mutant = JNK1 C116S mutant (Homo sapiens, UniProt P45983, C116S); assay: biochemical; assay type: binding

IC50 (JNK1): 0.044 ± 0.006 µM | Kd (JNK1 C116S mutant): 0.2 to 0.3 µM
SMILES: Cc1cc(NC(=O)c2cccc(NC(=O)/C=C/CN(C)C)c2)ccc1Nc1nccc(-c2cccnc2)n1 [JNK-IN-8]
